In US20090306012A1, “THERAPEUTIC PROTOCOLS” (priority 2001, published 2009):

Experiment: In vivo cytotoxicity (III), CMF±HA: overall survival time
Settings: mouse
Protocol: The overall survival time was calculated as the time (days or weeks) that the animal lived, after the commencement of treatment.

## Cyclophosphamide/methotrexate/5-fluorouracil [CMF]
  Treatment toxicity (in words): very toxic
